{"sequences": {"note": "Amino acid sequences for entries named in this document (tags omitted). Residues count along the entry.", "UniProt P13726, 33-295 limits assumed": "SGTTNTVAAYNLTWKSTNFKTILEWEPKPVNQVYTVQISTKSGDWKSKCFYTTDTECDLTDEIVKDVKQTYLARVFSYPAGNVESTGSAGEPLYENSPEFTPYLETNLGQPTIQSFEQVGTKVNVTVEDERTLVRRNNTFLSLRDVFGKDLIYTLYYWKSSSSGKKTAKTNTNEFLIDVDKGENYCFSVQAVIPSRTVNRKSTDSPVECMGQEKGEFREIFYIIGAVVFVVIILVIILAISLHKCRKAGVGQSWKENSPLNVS"}, "source": "patent US20100028358A1", "about": "“Compositions and Methods for Controlling Tissue Factor Signaling Specificity” (priority 2005, published 2010)", "target": "tissue factor (TF) coagulant activity (Homo sapiens, UniProt P13726)", "assay": "TF coagulant activity (Xa generation) on HaCaT cells", "details": "1 mM agent, 10 minutes prior to Xa generation assay; PAO 10 μM", "note": "Only a part of the results on these compounds is given; other tests are left out."}
{"substance": "sodium nitroprusside", "values": [{"measurement": "TF coagulant activity after Hg2+-induced activation and washout", "result": "no effect on TF activity"}]}
